# Target: M2 mAChR WT (Homo sapiens, UniProt P08172)
# Amino acid sequences for entries named in this document (tags omitted).
# UniProt P08172, whole entry: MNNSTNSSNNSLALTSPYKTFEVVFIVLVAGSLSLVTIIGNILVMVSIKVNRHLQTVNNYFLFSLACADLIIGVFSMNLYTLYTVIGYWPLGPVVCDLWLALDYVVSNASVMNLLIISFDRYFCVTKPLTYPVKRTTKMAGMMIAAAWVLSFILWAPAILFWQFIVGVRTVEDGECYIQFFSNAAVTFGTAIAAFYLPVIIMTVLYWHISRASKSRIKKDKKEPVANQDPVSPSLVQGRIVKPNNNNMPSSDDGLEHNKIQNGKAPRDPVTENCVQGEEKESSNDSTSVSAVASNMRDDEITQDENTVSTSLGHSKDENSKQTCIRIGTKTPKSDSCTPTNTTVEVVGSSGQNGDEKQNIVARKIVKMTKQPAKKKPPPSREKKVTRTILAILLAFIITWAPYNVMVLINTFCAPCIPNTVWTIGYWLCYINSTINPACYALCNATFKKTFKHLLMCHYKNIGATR
# Assay: [3H]-NMS radioligand dissociation binding, M2 mAChR WT
smiles,measurement,value
CCCCCCOc1nsnc1C1=CCCN(C)C1 [xanomeline],IC50,26.3 µM

# From PMC10482975 (Nature Communications, 2023)
